Test results taken from US11407811B2, “Fusion protein, preparation method therefor and use thereof” (JIANGSU RONGTAI BIOTECH CO., LTD., priority 2017, dated 2022).

Key:
[1] = system: breast cancer cell MDA-MB-231; experiment: MTT assay, proliferation of breast cancer cell MDA-MB-231; format: cell-based; details: dose 5 μg/mL
Procedure: The MTT assay was used to detect the inhibitory effect of the integrin blocker fusion protein obtained in Example 1 on the proliferation of various tumor cells, including melanoma cell B16F10, gastric cancer cell MGC-803, lung cancer cell A549, liver cancer cell Hep-G2, breast cancer cell MDA-MB-231, colon cancer cell HCT-116, human glioma U87, and cervical cancer cell Hela.
The tumor cells were cultured in a 5% CO2 incubator at 37° C. to a density of 90% or more, and collected by trypsinization. The cells were resuspended in the culture liquid and counted under a microscope. The cell concentration was adjusted to 3.0×10^4 cells/mL. The cell suspension was inoculated into a 96-well plate at 100 μL per well and cultured overnight in a 5% CO2 incubator at 37° C. The fusion proteins I, II, III, IV, V, and the positive drug Taxol were diluted with the culture liquid to respective predetermined concentrations. After the cells were fully adhered, each dilution was added to a 96-well plate at 100 μL per well, respectively. […] The absorbance was measured at 570 nm with a microplate reader with a reference wavelength of 630 nm, and the proliferation inhibition (PI) was calculated. […]
The test was repeated 5 times independently. The results obtained from the test were calculated as mean±SD, and statistical t-test was performed. […]

[2] = cited from earlier work

Compound	PI (%) [1] [%]	half-life in vivo [2] [min]
CC(=O)O[C@H]1C(=O)[C@@]2(C)[C@H]([C@H](OC(=O)c3ccccc3)[C@]3(O)C[C@H](OC(=O)[C@H](O)[C@@H](NC(=O)c4ccccc4)c4ccccc4)C(C)=C1C3(C)C)[C@]1(OC(C)=O)CO[C@@H]1C[C@@H]2O [Taxol, reference compound]	59.99	–
recombinant IL-2: common recombinant IL-2 of the related art	–	6.9
